Yeast mating assay B: variants of the scFv Ab-14

Target peptide (SARS-CoV-2 spike, HR2 region): PDVDLGDISGINAS

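Phage display of a naive human antibody library on the peptide gave the parent. Designed CDR sequences, proposed from the first random library and measured here. Their group label is 14H_En_HC (En: ensemble of fine-tuned language models; HC: hill climbing; a sequence that several methods proposed may carry one label only). Affinity was read by AlphaSeq, a pooled yeast mating assay with surface-displayed partners. Mating (16 h, 30 °C) was followed by selection of diploids and sequencing of their barcodes. Scores were corrected for input abundance and mapped to Kd with protein pairs of known affinity run in the same pool. There are six technical replicates.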

Ab-14 is the parent antibody, in scFv form: VH, then three GGGGS repeats, then VL. The light chain is unchanged in all variants.
VH: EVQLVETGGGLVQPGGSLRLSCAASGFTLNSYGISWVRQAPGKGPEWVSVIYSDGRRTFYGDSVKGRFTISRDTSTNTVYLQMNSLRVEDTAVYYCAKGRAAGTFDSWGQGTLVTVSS
VL: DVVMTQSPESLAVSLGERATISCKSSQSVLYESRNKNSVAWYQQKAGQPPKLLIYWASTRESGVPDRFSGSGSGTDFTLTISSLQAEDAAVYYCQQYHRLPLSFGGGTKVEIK

Each variant is given by its three heavy chain CDRs, as the data file delimits them; those of the parent are GFTLNSYGIS, VIYSDGRRTFYGDSVK, GRAAGTFDS. Values are log10 of the apparent Kd in nM; lower means stronger binding. A mean of the replicates is given; it leaves out those without a signal. In the paper, a design with two or fewer of six values counts as a poor binder. The range of this assay differs from that of the first round, and the authors advise against merging the two. Nonspecific signal, from three strains lacking the peptide, appeared in 1% of pairings of all heavy chain designs, centred on 2.08 (5% of these signals below 0.84); values are not corrected for it. Also given: how often the same scFv was detected with the empty control strains, with their mean in brackets. The parent sequence was in this pool as ten entries: three were never detected, three once, and four in most replicates, with averages from 0.34 to 2.37.

CDR-H1,CDR-H2,CDR-H3,"log10 Kd, replicates","log10 Kd (nM), mean",empty controls
GFDLNEYGIS,VIYADGRRTFYADSVK,GQVAGTFDS,-0.35 / -0.34 / -0.38 / -0.44 / -0.17 / -0.18,-0.31,0 of 18
GFDLDEYGIS,VIYADGMRTFYADSVK,GSNAGTFDM,-0.14 / -0.23 / -0.23 / -0.34 / -0.19 / 0.02,-0.18,0 of 18
GFDLNEYGIS,VIYADGRRTAYSDSVK,GEAGGTFDT,0.00 / 0.15 / 0.41 / -0.41 / -0.26 / -0.20,-0.05,0 of 18
GFDINEYGIS,VIYADGRRTFYADSVK,GTNAGTFDV,-0.22 / -0.34 / -0.40 / -0.43 / -0.22 / -0.34,-0.33,0 of 18
GFDLNEYGIS,VIYADGRRTFYIDSVK,GEQAGTFDS,-0.24 / -0.66 / -0.63 / -0.70 / -0.67 / -0.55,-0.57,0 of 18
GFDINEYGIS,VIYADGRRTFYADSVK,GTNAGTFDS,-0.05 / -0.14 / -0.30 / -0.14 / -0.17 / 0.61,-0.03,0 of 18
GFDLNEYGIS,VIYADGRRTFYADSVK,GANAGTFDS,-0.16 / 0.32 / 0.01 / -0.41 / -0.45 / -0.45,-0.19,0 of 18
GFDLNEYGIS,VIYADGVRTFYSDSVK,GTNGGTFDI,-0.40 / -0.24 / -0.21 / -0.77 / -0.60 / -0.09,-0.39,1 of 18 (1.80)
GFDLEDYGIS,VIYADGRRTFYADSVK,GNVAGTFVS,-0.05 / -0.33 / -0.51 / -0.43 / -0.47 / -0.34,-0.36,0 of 18
GFDLNEYGIS,VIYADGRRTSYIDSVK,GEIAGTFNV,0.93 / 0.70 / 0.96 / 0.36 / 0.83 / 0.92,0.78,0 of 18
GFDLNEYGIS,VIYADGRRTAYADSVK,GQLAGTFDV,-0.36 / -0.41 / -0.67 / -0.53 / -0.67 / -0.30,-0.49,0 of 18
GFDLNEYGIS,VIYADGRRTFYADKVK,GENAGTFNV,-0.58 / -0.63 / -0.85 / -0.56 / -0.80 / -0.55,-0.66,0 of 18
GFDLDEYGIS,VIYADGRRTFYADSVK,GSHAGTFDT,-0.55 / -0.25 / -0.59 / -0.35 / -0.78 / -0.93,-0.57,0 of 18
GFSLDEYGIS,VIYADGRRTFYIDSVK,GETAGTFDS,-0.35 / -0.44 / -0.50 / -0.32 / -0.51 / -0.53,-0.44,1 of 18 (3.29)
GFDLNEYGIS,VIYADGRRTFYADSVK,GVNAGTFDV,-0.24 / -0.77 / -0.81 / -1.18 / -0.62 / -0.76,-0.73,0 of 18
GFNLNEYGIS,VIYADGKRTFYADSVK,GEAAGTFDV,-0.15 / -0.45 / -0.22 / -0.57 / -0.51 / -0.20,-0.35,0 of 18
GFDLNEYGIS,VIYADGRRTFYADSVK,GEEAGTFDI,-0.76 / -0.38 / -0.48 / -0.73 / -1.00 / -1.05,-0.73,0 of 18
GFDLNEYGIS,VIYADGQRTAYADSVK,GKAAGTFDV,-0.70 / -0.88 / -0.90 / -1.05 / -1.31 / -0.61,-0.91,1 of 18 (2.88)
GFDLEDYGIS,VIYADGRRTAYADSVK,GEAAGTFDV,-0.63 / -0.85 / -0.53 / -0.69 / -0.62 / -0.18,-0.58,0 of 18
GFDLESYGIS,VIYADGSRTAYADSVK,GNVAGTFDI,-0.23 / 0.19 / -0.66 / -0.48 / -0.27 / -0.36,-0.30,0 of 18
GFDLNEYGIS,VIYADGKRTFYSDSVK,GQTAGTFDV,-0.29 / -0.71 / -0.80 / -0.83 / -0.68 / 0.19,-0.52,0 of 18
GFDLNEYGIS,VIYADGRRTFYADSVK,GNVAGTFFE,-0.10 / -0.91 / -0.50 / -0.80 / -1.20 / -0.72,-0.70,0 of 18
GFDLNEYGIS,VIYADGRRTAYIDSVK,GHEAGTFDV,-0.08 / -0.03 / -0.24 / -0.18 / -0.28 / -0.05,-0.14,1 of 18 (0.96)
GFDLNEYGIS,VIYADGQRTFYADSVK,GQLAGTFDV,-0.15 / -0.21 / -0.65 / -0.92 / -0.67 / -0.61,-0.54,0 of 18
GFDLNEYGIS,VIYADGRRTFYTDDVK,GENAGTFDL,0.48 / 0.22 / 0.44 / -0.85 / -0.63 / -0.17,-0.09,0 of 18
GFDLNEYGIS,VIYADGRRTAYIDSVK,GNVAGTFDA,-0.24 / -0.49 / -0.62 / -0.65 / -0.53 / -0.41,-0.49,1 of 18 (1.98)
GFSLDEYGIS,VIYADGRRTFYADSVK,GENAGTFDM,-0.50 / -0.73 / -1.03 / -1.25 / -0.85 / -0.87,-0.87,0 of 18
GFDLDEYGIS,VIYADGQRTFYQDSVK,GQAAGTFDQ,-0.30 / -0.17 / -0.51 / -0.47 / -0.35 / -0.56,-0.39,0 of 18
GFDLNEYGIS,VIYADGRRTSYKDSVK,GEHAGTFDV,-0.39 / -0.31 / -0.50 / -0.60 / -0.65 / -0.37,-0.47,0 of 18
GFDLNEYGIS,VIYADGRRTFYVDSVK,GEVAGTFNV,-0.18 / -0.45 / -0.69 / -0.63 / -0.58 / -0.26,-0.47,0 of 18
GFNLNEYGIS,VIYADGRRTFYADSVK,GNQAGTFDM,-0.39 / -0.57 / -0.69 / -0.41 / -0.45 / -0.50,-0.50,0 of 18
GFDLESYGIS,VIYADGSRTAYADSVK,GNVAGTFNM,-0.20 / -0.12 / 1.01 / -0.06 / 2.73 / 0.92,0.71,0 of 18
GFDLNEYGIS,VIYADGMRTFYADSVK,GEVAGTFVQ,-0.17 / -0.12 / -0.30 / -0.53 / -0.26 / -0.09,-0.24,0 of 18
GFDLNEYGIS,VIYADGRRTFYSDSVK,GAVAGTFDE,-0.52 / -0.34 / -0.41 / -0.60 / -0.82 / -0.37,-0.51,0 of 18
GFDLNEYGIS,VIYADGMRTAYADSVK,GEAAGSFDQ,0.71 / 0.09 / 0.52 / 0.93 / 0.89 / 0.27,0.57,0 of 18

Values reported by Li et al. 2023, doi:10.1038/s41467-023-39022-2 (FLAb copy).